High-throughput results from PubChem.
TDP1 cell CPT – DT40-hTDP1 cell growth loss with CPT | chicken DT40 Tdp1-/-;hTDP1 cells + 20 nM CPT, ATP luminescence, 48 h | Potency, µM (titrated, usually from 46.2 µM), inactives show top-dose activity change, negative = growth inhibition, actives largely listed as inhibitors | 420,000 compounds, 12% hits | AID 686979; further: potency means the concentration at half of the fitted maximal effect; on the % scale 0 is the no-effect control and ±100 the full control effect; nearly all actives have a fitted effect of over 55% in size
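Cell growth measured by CellTiter-Glo luminescence after a minimum 48 h, 37 C compound exposure with 20 nM CPT in Tdp1-knockout DT40 cells stably expressing hTDP1, seeded 400/well; qHTS titration format.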
TDP1 block – blocks human tyrosyl-DNA phosphodiesterase 1; Q9NUW8; recombinant TDP1, AlphaScreen DNA substrate cleavage; Potency, µM (series often up to 130 µM), for the others: at the highest dose activity change, negative = inhibition, hits mostly inhibitors; 350,000 compounds, 0.28% hits; AID 485290; further: potency means the concentration at half of the fitted maximal effect; on the % scale 0 is the no-effect control and ±100 the full control effect; nearly all actives have a fitted effect of over 40% in size
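AlphaScreen read-out: signal falls as enzyme removes the 3' tyrosine-FITC from a 5'-biotinylated DNA oligo (15 nM, 5 min, RT). Enzyme was E. coli-made recombinant Tdp1 at 1 nM, exposed to compound for 15 min beforehand; beads 10 ug/ml, 10 min.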
uPA surface inh – blocks generation of uPA at the cell surface; 330,000 compounds, 0.31% hits; Potency, µM (titrated, usually from 38.3 µM), inactives show top-dose activity change, negative = inhibition, actives largely listed as inhibitors; cell surface uPA generation assay, qHTS; AID 540303; active means well fitted inhibition curve with a large enough effect; inconclusive means small, poorly fitted or top-dose-only effect; inactive means no such curve, though single readings can be large or run the other way; tested in mouse RAW 264.7 cells; further: potency means the concentration at half of the fitted maximal effect; on the % scale 0 is the no-effect control and ±100 the full control effect; nearly all actives have a fitted effect of over 55% in size
TDP1 cell noCPT – qHTS for Inhibitors of human tyrosyl-DNA phosphodiesterase 1 (TDP1): qHTS in cells in absence of CPT | DT40 Tdp1-/- hTDP1 cells, no CPT, ATP luminescence, 48 h | Potency, µM (doses to about 46.2 µM), without a hit: at the highest dose activity change, negative = growth inhibition, usual class: inhibitors | 420,000 compounds, 15% hits | AID 686978, 2013; further: potency means the concentration at half of the fitted maximal effect; on the % scale 0 is the no-effect control and ±100 the full control effect; nearly all actives have a fitted effect of over 55% in size
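Growth of hTDP1-complemented DT40 Tdp1-knockout cells is measured by ATP luminescence after at least 48 hr compound exposure at 37 °C, with DMSO substituting for the 20 nM CPT used in the parallel screen.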
miR-21 reporter – raises the signal of a miR-21 reporter | HeLa miR-21 FLuc reporter, luciferase, 48 h | Potency, µM (highest dose often 38.3 µM), for inactives: at the highest dose reporter change, positive = more light | 340,000 tested, under 10 active | AID 2288; active = well fitted rising curve with a large enough effect; inconclusive = small, poorly fitted or top-dose-only effect; inactive = no such curve, though single readings can be large or run the other way;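 also: % of control where 0% means no effect; miR-21 action dims this reporter so a rising signal means less miR-21 action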
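HeLa cells endogenously expressing miR-21, stably carrying CMV-driven firefly luciferase with a downstream miR-21 binding site, 2000 cells/well. Titrations up to approximately 40 uM, 48 hours; luciferase luminescence read.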
Numbers without * were called inactive; [ ] = remark or other dose. Rows were chosen to be rich in hits. Some 16% of all compounds tested hit in one or more screens of this group. Unless noted, the call rests on the fitted dose curve; in most records, active means well fitted curve in the direction sought with a large enough effect; inconclusive means small, poorly fitted or top-dose-only effect, or another doubt; inactive means no such curve, though single readings can be large; an effect the other way counts as inactive or inconclusive.

Results for COCCC(=O)NC1CCCc2c1cnn2-c1cccc(C)c1C (stereo unspecified) ?
TDP1 cell CPT: -19.3%; uPA surface inh: -2.8%; TDP1 cell noCPT: -22.3%; miR-21 reporter: 2.3%

How did Cc1cccc(-n2ncc3c2CCCC3NC(=O)C2(C(N)=O)CC2)c1C (stereo unspecified) do in these assays?
TDP1 cell CPT: 10.3µM*; TDP1 block: 3.2%; uPA surface inh: -7.6%; TDP1 cell noCPT: inconclusive; miR-21 reporter: 17.9%

What do the screens show for `COc1cccc(/C=C2\SC(=O)N(CC(=O)NC3CCS(=O)(=O)C3)C2=O)c1` (stereo unspecified)?
TDP1 cell CPT: -7.6%; TDP1 block: 4.1%; uPA surface inh: -5.7%; TDP1 cell noCPT: 5.9%; miR-21 reporter: -1.4%

What do the screens show for `Cc1cccc(NC(c2ccccc2F)c2ccc3ccc(C)nc3c2O)n1` (stereo unspecified)?
TDP1 cell CPT: inconclusive; TDP1 block: 7.6%; TDP1 cell noCPT: 23.1µM*; miR-21 reporter: -1.4%

What do the screens show for `Cc1ccc(C)c(C(Nc2ccccc2)c2ccc3ccc(C)nc3c2O)c1` (stereo unspecified)?
TDP1 cell CPT: 20.6µM*; TDP1 cell noCPT: 18.4µM*

Results for Cc1ccc(NCc2nnc(SCC(N)=O)n2CC2CCCO2)c(C)c1 (stereo unspecified) ?
TDP1 cell CPT: 4.7%; TDP1 block: 5.6%[56.1 µM]; uPA surface inh: -2.7%; TDP1 cell noCPT: -15.1%; miR-21 reporter: -45.9%

What do the screens show for `CC1=CC(=C(C#N)c2nc3ccccc3s2)C=C(C)N1c1ccc(F)cc1`?
TDP1 cell CPT: inconclusive; TDP1 block: 0.0%; uPA surface inh: -2.8%; TDP1 cell noCPT: inconclusive; miR-21 reporter: -6.4%

Results for COc1ccccc1N1C(C)=CC(=C(C#N)c2nc3ccccc3s2)C=C1C ?
TDP1 cell CPT: 8.2µM*; TDP1 block: 0.6%; uPA surface inh: -2.9%; TDP1 cell noCPT: 13µM*; miR-21 reporter: -0.5%

What do the screens show for `CCOc1cc(/C=C2\COc3ccccc3C2=O)ccc1OCC(=O)N(C)C`?
TDP1 cell CPT: inconclusive; TDP1 block: 3.3%; uPA surface inh: -9.1%; TDP1 cell noCPT: 10.3µM*; miR-21 reporter: inconclusive

How did CCNC(=O)COc1ccc(/C=C2\COc3ccccc3C2=O)cc1OC do in these assays?
TDP1 cell CPT: 14.6µM*; TDP1 block: 10.0%; uPA surface inh: -0.9%; TDP1 cell noCPT: 13µM*; miR-21 reporter: inconclusive

Results for COc1cc(C=C2C(=O)OC(C)(C)OC2=O)ccc1OCC(=O)Nc1ccccc1 ?
TDP1 cell CPT: 4.3%; TDP1 block: -0.6%; uPA surface inh: 11.2%; TDP1 cell noCPT: -2.6%; miR-21 reporter: -52.8%

How did O=S1(=O)CCOC[C@H](CC2CCCCC2)N1Cc1cccc(Cl)c1 do in these assays?
TDP1 cell CPT: 14.1µM*; uPA surface inh: 3.1%; TDP1 cell noCPT: 11.2µM*; miR-21 reporter: 9.5%

What do the screens show for `Cc1ccccc1CN1[C@@H](CC2CCCCC2)COCCS1(=O)=O`?
TDP1 cell CPT: inconclusive; uPA surface inh: 8.4%; TDP1 cell noCPT: 12.6µM*; miR-21 reporter: 12.7%

How did CCC1COCCS(=O)(=O)N1Cc1cccc(Cl)c1 (stereo unspecified) do in these assays?
TDP1 cell CPT: inconclusive; uPA surface inh: 7.8%; TDP1 cell noCPT: inconclusive; miR-21 reporter: 2.4%

Results for CC(C)[C@H]1COCCS(=O)(=O)N1Cc1cccc(Cl)c1 ?
TDP1 cell CPT: inconclusive; uPA surface inh: 3.7%; TDP1 cell noCPT: 11.2µM*; miR-21 reporter: 0.6%

What do the screens show for `Cc1ccccc1-c1ccccc1CN1[C@@H](C(C)C)COCCS1(=O)=O`?
TDP1 cell CPT: inconclusive; TDP1 block: -4.9%[56.1 µM]; uPA surface inh: 14.1%; TDP1 cell noCPT: 18.4µM*

Results for CCOC(=O)c1c(C)[nH]c(C(=O)CN2C(=O)NC3(CCCC3)C2=O)c1C ?
TDP1 cell CPT: -14.9%; TDP1 block: 1.2%; uPA surface inh: -7.5%; TDP1 cell noCPT: 1.9%; miR-21 reporter: -42.3%

Results for CCCC1(c2ccccc2)NC(=O)N(CC(=O)c2[nH]c(C)c(C(=O)OCC)c2C)C1=O (stereo unspecified) ?
TDP1 cell CPT: inconclusive; TDP1 block: 2.0%; uPA surface inh: -2.4%; TDP1 cell noCPT: 20.6µM*; miR-21 reporter: 8.7%

What do the screens show for `Cc1c(Cl)c(C(F)F)nn1CC(=O)NC1C(=O)N2C(C(=O)O)=C(CSc3nnnn3C)CSC12` (stereo unspecified)?
TDP1 cell CPT: -11.8%; uPA surface inh: -9.6%; TDP1 cell noCPT: -3.4%; miR-21 reporter: -3.2%

Results for O=[N+]([O-])c1ccc2oc(-c3ccccc3)nc2c1 ?
TDP1 cell CPT: 6.5%; TDP1 block: 2.7%; uPA surface inh: -7.2%; TDP1 cell noCPT: -16.3%; miR-21 reporter: -36.5%

Results for NC(N)=Nc1nc2cc([N+](=O)[O-])ccc2o1 ?
TDP1 cell CPT: 10.3µM*; TDP1 block: 4.8%; uPA surface inh: 3.2%; TDP1 cell noCPT: 10.3µM*; miR-21 reporter: -24.6%

Results for O=C(CSc1nnc2ccccn12)NC(=O)c1ccccc1Cl ?
TDP1 cell CPT: -16.4%; TDP1 block: 25.1µM*; uPA surface inh: inconclusive; TDP1 cell noCPT: 3.2%

How did CCOC(=O)C1CCN(Cc2cc(C(C)C)c(O)c(C(C)C)c2)CC1 do in these assays?
TDP1 cell CPT: 9.2µM*; TDP1 block: 0.6%; uPA surface inh: -10.0%; TDP1 cell noCPT: 9.2µM*; miR-21 reporter: 19.3%

How did CCOC(=O)C1CCCN(C(=O)c2ccc3c(c2)C(C)(C)CCC3(C)C)CC1 (stereo unspecified) do in these assays?
TDP1 cell CPT: 8.2µM*; TDP1 cell noCPT: 6.51µM*

What do the screens show for `CCOC(=O)C1CCCN(C(=O)c2ccc(-c3ccccc3)cc2)CC1` (stereo unspecified)?
TDP1 cell CPT: 16.4µM*; TDP1 cell noCPT: inconclusive

How did CCOC(=O)C1CCCN(C(=O)CC(C)c2ccccc2)C1 (stereo unspecified) do in these assays?
TDP1 cell CPT: -13.4%; TDP1 block: -11.0%; uPA surface inh: 3.7%; TDP1 cell noCPT: -0.9%; miR-21 reporter: -39.9%

How did CCOC(=O)C1CCN(C(=O)CC(C)c2ccccc2)CC1 (stereo unspecified) do in these assays?
TDP1 cell CPT: 18.4µM*; TDP1 block: -1.0%; uPA surface inh: -1.4%; TDP1 cell noCPT: inconclusive; miR-21 reporter: -4.1%

What do the screens show for `Cc1ccc(COc2ccc3oc(-c4ccccc4)c(C(=O)O)c3c2)cc1`?
TDP1 cell CPT: 7.2%; TDP1 block: -4.0%[12.3 µM]; TDP1 cell noCPT: -11.0%; miR-21 reporter: inconclusive
